Target: Kappa-type opioid receptor (Rattus norvegicus, UniProt P34975)
Experiment: Displacement of bound [3H]diprenorphine in cloned rat Opioid receptor kappa 1 expressed in Sf9 insect cells

Protein sequences, listed by entry. Tags and fused reporters are not part of them. Lines headed by an entry give the natural chain unless they say otherwise; changes in a name come on top.
UniProt P34975: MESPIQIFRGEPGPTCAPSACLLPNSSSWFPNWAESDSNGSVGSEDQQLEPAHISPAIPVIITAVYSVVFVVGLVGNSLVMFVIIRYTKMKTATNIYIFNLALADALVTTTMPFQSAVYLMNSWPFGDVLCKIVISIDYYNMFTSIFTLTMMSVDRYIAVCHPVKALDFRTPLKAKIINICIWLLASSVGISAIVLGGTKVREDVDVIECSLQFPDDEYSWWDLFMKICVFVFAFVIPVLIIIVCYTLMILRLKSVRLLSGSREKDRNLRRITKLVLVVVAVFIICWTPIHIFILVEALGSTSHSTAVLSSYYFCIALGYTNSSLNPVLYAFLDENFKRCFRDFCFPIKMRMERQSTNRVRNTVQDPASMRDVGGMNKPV

| Compound | Ki |
| --- | --- |
| CSCC[C@@H](CN1CC=CC1)N(C)C(=O)Cc1ccc([N+](=O)[O-])cc1 | 3.06 nM |
| CC(C)[C@@H](CN1CC=CC1)N(C)C(=O)Cc1ccc(Cl)c(Cl)c1 | 5.72 nM |

— ChEMBL document CHEMBL1134881, “3-Pyrroline containing arylacetamides: a novel series of remarkably selective kappa-agonists” (2002)
